These are literature values, as cited in US20010051628A1, “METHODS TO MODULATE THE RESISTANCE OF CELLS TO APOPTOSIS MEDIATED BY MUTANT EPIDERMAL GROWTH FACTOR RECEPTORS” (priority 1998, published 2001).

This series addresses ΔEGFR (Homo sapiens, UniProt P00533, DELINS30-297G). Conditions: cited from earlier work.

Turning to `COc1cc2ncnc(Nc3cccc(Cl)c3)c2cc1OC` [AG1478], the “specificity for inhibition of ΔEGFR, relative to wt EGFR” value is recorded as “more than 10 fold”.
